# Antibody variant affinities, Ab-91 heavy chain, assay 2

Binding partner: SARS-CoV-2 spike HR2 peptide, sequence PDVDLGDISGINAS.

The variants keep the light chain, the linker and the frameworks of Ab-91 (scFv order VL, three GGGGS repeats, VH).
VL: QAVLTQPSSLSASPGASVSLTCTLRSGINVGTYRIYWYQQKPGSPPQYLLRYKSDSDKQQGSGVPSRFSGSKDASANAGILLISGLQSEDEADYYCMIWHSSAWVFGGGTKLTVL
VH: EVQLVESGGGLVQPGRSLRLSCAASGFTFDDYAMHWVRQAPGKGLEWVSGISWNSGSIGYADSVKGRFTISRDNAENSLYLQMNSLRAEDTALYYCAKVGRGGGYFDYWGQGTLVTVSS

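Phage display of a naive human antibody library on the peptide gave the parent. Variants in AAYL51 differ from the parent at up to three CDR positions; double and triple changes were sampled at random. Affinity was read by AlphaSeq, a pooled yeast mating assay with surface-displayed partners. The frequency of each diploid, read from paired DNA barcodes, reflects how well the two displayed proteins bind. A regression on co-assayed BCL2-family reference pairs converts the normalised counts of each replicate to an apparent Kd. The assay was run in three technical replicates.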

Changes read parent residue, position, new residue, counted from the first residue of the VH shown.
Every variant below is changed at G102 of the VH (sequential numbering).
Each Kd is an estimate from the mating assay, the geometric mean of the replicates in which the pair was seen; lower is stronger.
Where no diploid with the target was found in any replicate, the entry reads "nd": below detection, most likely a poor binder, though not proof of it.
Three control strains display no target. For library AAYL51, 21% of the pairings with them gave a signal, with a median of 34 µM and one signal in twenty below 1.8 µM, so weak values seen in few replicates may be background.
Parent in this assay: reference entry 72 nM, copy in this library 7.5 nM.

- Y32I D62K G102L: 540 µM (1 of 3 replicates)
- I51R G102K D107M: 660 µM (1 of 3 replicates)
- V64L G100W G102Q: 530 µM (3 of 3 replicates)
- D31E H35G G102R: nd (0 of 3 replicates)
- Y60L S63L G102L: nd (0 of 3 replicates)
- F27D I51Q G102S: 81 µM (3 of 3 replicates)
- N54E G102Y D107G: 12 µM (1 of 3 replicates)
- S52C G102V: nd (0 of 3 replicates)
- T28K G102T F106P: 37 µM (1 of 3 replicates)
- G102Y: nd (0 of 3 replicates)
- D30P D62C G102D: 2.3 µM (3 of 3 replicates)
- A33P V64N G102E: nd (0 of 3 replicates)
- S55H S63C G102M: 11 µM (1 of 3 replicates)
- G102F: 400 nM (3 of 3 replicates)
- S52Q G56K G102L: 8.2 µM (2 of 3 replicates)
- G102W G103C: 81 µM (1 of 3 replicates)
- A61R R101W G102T: nd (0 of 3 replicates)
- M34F D62G G102E: 80 µM (1 of 3 replicates)
- V64L G102C: nd (0 of 3 replicates)
- F27H G102E Y105I: nd (0 of 3 replicates)
- T28L G59V G102Y: 16 µM (1 of 3 replicates)
- H35C S63W G102L: 17 µM (1 of 3 replicates)
- D30E V64F G102Q: 35 nM (3 of 3 replicates)
- H35D A61N G102Y: 24 µM (1 of 3 replicates)
- Y32M G56R G102R: nd (0 of 3 replicates)
- T28E G102S: 37 µM (3 of 3 replicates)
- N54V G102E Y108D: nd (0 of 3 replicates)
- W53N N54E G102H: nd (0 of 3 replicates)
- Y32N S52T G102A: 8.0 µM (1 of 3 replicates)
- A33K S52P G102A: 32 µM (1 of 3 replicates)
- Y32G I58D G102C: 170 µM (2 of 3 replicates)
- H35I S55K G102K: nd (0 of 3 replicates)
- D62K V64R G102T: nd (0 of 3 replicates)
- F27P G102Q G103T: nd (0 of 3 replicates)
- N54W G102M F106G: 150 µM (3 of 3 replicates)
- K65W G102W Y108M: 4.5 µM (2 of 3 replicates)
- G59V G102S G104F: nd (0 of 3 replicates)
- D31C S55M G102Y: 2.2 µM (1 of 3 replicates)
- G26C N54L G102S: 3.0 µM (1 of 3 replicates)
- I58D G102E G103C: nd (0 of 3 replicates)

The 3 strongest on average among those seen in every replicate, once more:

changes	Kd (apparent)	replicates with signal
D30E V64F G102Q	35 nM	3 of 3
G102F	400 nM	3 of 3
D30P D62C G102D	2.3 µM	3 of 3

Source: Engelhart et al. 2022 (doi:10.1038/s41597-022-01779-4), MIT Lincoln Laboratory and A-Alpha Bio; data file from the FLAb repository.